For this assay, the target named is L-lactate dehydrogenase A chain (Homo sapiens, UniProt P00338). Nature of the assay: Inhibition of recombinant full length N-terminal His-tagged human LDHA expressed in Escherichia coli using pyruvate as substrate and NADH as cofactor incubated for 2 hrs by fluorescence assay. An outline of the steps: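 Reassociation activity assay: 900 nM LDHA stock in phosphate pH 7.4/EDTA/0.05% BSA, acidified 2 min with glycine pH 2.5/BSA. Peptide added in 0.25 M phosphate pH 7.6 and incubated 2 h at RT. Aliquot diluted, then pyruvate (3 mM final) and NADH (0.3 mM final) added. IC50 from dose-response fit.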

Molecules are shown by their SMILES.

The IC50 is the concentration needed to halve the response being measured. As for `CC(C)C[C@@H]1NC(=O)[C@H](CCCNC(=N)N)NC(=O)[C@H](CCCNC(=N)N)NC(=O)[C@@H](NC(=O)[C@@H]2CCC(=O)N2)CSSC[C@@H](C(=O)N[C@@H](CCCNC(=N)N)C(=O)NCC(=O)N[C@@H](CCCNC(=N)N)C(=O)O)NC(=O)[C@H](Cc2ccc(O)cc2)NC(=O)[C@H]([C@@H](C)O)NC(=O)[C@H](C(C)C)NC(=O)[C@@H]2CSSC[C@H](NC1=O)C(=O)N[C@@H](Cc1ccc(O)cc1)C(=O)N[C@@H](CCCCN)C(=O)N[C@@H](CCC(N)=O)C(=O)N[C@@H](CCCNC(=N)N)C(=O)N2`, the IC50 is above 40 µM.

The values are drawn from ChEMBL document CHEMBL5030510, “Designed β-Hairpins Inhibit LDH5 Oligomerization and Enzymatic Activity” (J Med Chem, 2021).
